The text below walks through data of PubChem BioAssay AID602267 (Broad Institute, 2012).

Only a part is listed here, and it is no random draw. The source made the active and inactive calls.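 The calls were made as follows: active = signal falls with dose and the fitted half-maximal concentration is at or below twice the top valid tested dose; inconclusive = flat curve with 30 to 70% inhibition, or poor fit; inactive = wrong direction, flat within 30%, or potency beyond limit.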

This test deals with Golgi-associated PDZ and coiled-coil motif-containing protein (Homo sapiens) (UniProt Q9HD26). The test can be described thus: CAL PDZ domain peptide-binding inhibitors, dose response, biochemical, fluorescence polarization, untagged CAL PDZ, cherry-pick (AID 602267). The note with it: purified CAL PDZ, TMR-peptide fluorescence polarization, 1 h; at 50 µM (top of the series). A general note: Polarisation of emitted light reports the rotation of a fluorescent probe.

On to `CC1CCNP(=O)(N(CCCl)CCCl)O1` (stereo unspecified), for which the “activity change, negative = inhibition” value was “inactive”.
